From BindingDB's records for doi:10.1016/0024-3205(84)90540-x (Schering-Plough, 1984)

The chains behind the UniProt entries cited, without tags or fusion partners.
UniProt P18901, whole entry: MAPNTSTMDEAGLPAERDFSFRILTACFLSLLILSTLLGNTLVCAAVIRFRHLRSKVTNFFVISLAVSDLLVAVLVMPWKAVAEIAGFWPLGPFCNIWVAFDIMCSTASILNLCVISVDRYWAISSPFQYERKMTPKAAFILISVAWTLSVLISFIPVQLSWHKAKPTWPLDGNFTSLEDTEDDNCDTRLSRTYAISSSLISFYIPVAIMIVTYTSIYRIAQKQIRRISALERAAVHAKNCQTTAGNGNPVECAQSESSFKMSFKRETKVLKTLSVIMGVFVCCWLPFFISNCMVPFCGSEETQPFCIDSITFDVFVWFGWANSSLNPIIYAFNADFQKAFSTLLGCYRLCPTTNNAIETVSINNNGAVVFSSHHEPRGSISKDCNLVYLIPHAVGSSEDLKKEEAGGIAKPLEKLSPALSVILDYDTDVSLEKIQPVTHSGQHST

Biological target: D(1A) dopamine receptor (Rattus norvegicus, UniProt P18901)

CN1C(=O)CN=C(c2ccccc2)c2cc(Cl)ccc21 gave a Ki of over 10 µM.
